Assay results reported in BindingDB's records for doi:10.1016/j.bioorg.2016.07.013 (Shenyang Pharmaceutical University, 2016).

Chains of the proteins cited; added tags and fusions are not shown.
UniProt P06276, whole entry: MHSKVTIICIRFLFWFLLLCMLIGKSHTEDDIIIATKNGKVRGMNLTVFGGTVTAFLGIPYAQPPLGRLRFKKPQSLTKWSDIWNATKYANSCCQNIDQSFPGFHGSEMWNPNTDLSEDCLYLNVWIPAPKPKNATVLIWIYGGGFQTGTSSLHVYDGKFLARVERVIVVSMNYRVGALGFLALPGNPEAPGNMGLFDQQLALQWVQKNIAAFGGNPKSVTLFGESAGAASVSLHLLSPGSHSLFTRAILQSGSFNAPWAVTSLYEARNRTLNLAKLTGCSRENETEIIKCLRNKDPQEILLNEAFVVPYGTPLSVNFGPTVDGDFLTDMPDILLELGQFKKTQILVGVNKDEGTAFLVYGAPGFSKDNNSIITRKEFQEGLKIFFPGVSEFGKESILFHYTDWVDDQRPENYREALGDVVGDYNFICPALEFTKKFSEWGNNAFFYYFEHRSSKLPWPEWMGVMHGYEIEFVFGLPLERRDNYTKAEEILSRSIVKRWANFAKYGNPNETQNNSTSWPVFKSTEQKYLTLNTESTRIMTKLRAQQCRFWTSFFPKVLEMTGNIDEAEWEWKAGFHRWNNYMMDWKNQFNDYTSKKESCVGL

Target: Cholinesterase (Homo sapiens, UniProt P06276)
Experiment: AChE and BuChE Inhibition Assay
Details: pH 8
Experimental: The reaction mixture was consisted of 100 µL of the total volume.

CC(C)NP(=O)(NC(C)C)OP(=O)(NC(C)C)NC(C)C [({[bis(propan-2-ylamino)phosphoryl]oxy}(propan-2-ylamino)phosphoryl)(propan-2-yl)amine]
IC50: 134 nM
